According to patent publication US20250320471A1, “Method for Producing Compounds, Method for Producing Compound Library, Compound Library, and Screening Method” (The University of Tokyo, priority 2021, published 2025):

Assays:
[1] = system: LimF-H172L; experiment: Steady-state kinetics of prenylation by LimF-H172L mutant; assay type: biochemical, Limnothrix sp. CACIAM 69d
Procedure: (§1) Kinetic parameters of the His-prenylation reaction facilitated by LimF were determined based on reactions under optimal conditions using substrates of different concentrations. For the Tyr-prenylation described below, the kinetic parameters were measured under the same conditions except that LimF was set to 5 μM and the reaction temperature was set to 16° C. In order to estimate the kinetic parameters, the initial rate and substrate concentration were fitted to the Michaelis-Menten model in Graphpad Prism 8.4.2 software.

[2] = system: LimF-H172L; experiment: Tyr-prenylation of bioactive peptides by LimF-H172L variant; assay type: biochemical, Limnothrix sp. CACIAM 69d; details: 50 μM substrate, 40 μM LimF-H172L, 2 mM GPP, 20 hours; for % prenylation (LC/MS): Tyr-prenylation
[3] = target: T1, teR6-H5A
T1 chain: FRGNATYIPC

[4] = target: T2, bcLimE2
T2 chain: RYPHEEIP

[5] = system: teR6 and teR6-H5A; experiment: Tyr-prenylation ability of LimF variants on teR6 and teR6-H5A; assay type: biochemical
Procedure: as §1
Similarly, modification of the teR6 and teR6-H5A substrates facilitated by wt-LimF and each LimF variant was performed to evaluate the Tyr-prenylation ability thereof. The reaction was carried out in the same manner as the prenylation of bcLimE2, except that teR6 or teR6-H5A was used as the substrate and the reaction was carried out with 5 μM LimF for 24 hours.

[6] = Tyr-prenylation (C10 O-) by LimF-H172L
[7] = Tyr-prenylation (C10 O-) by LimF-H172L, listed as tecyclo[DFRGNATYIPC]

CCC(C)C1NC(=O)C(CCC(=O)O)NC(=O)C(CCC(=O)O)NC(=O)C(Cc2c[nH]cn2)NC(=O)C2CCCN2C(=O)C(Cc2ccc(O)cc2)NC(=O)C(CCCNC(=N)N)NC(=O)C2CCCN2C1=O (stereo not drawn) [bcLimE2] (cyclo(EEIPRYPH); configuration not given here)
Km ([1]; His-prenylation by LimF-H172L): 1700 ± 400 µM
kcat ([1]; His-prenylation by LimF-H172L): 0.00083 ± 0.00017 s⁻¹

tecyclo[DFRGNATYIPC] [teR6-H5A]
Km [1, 6]: 1700 ± 400 µM
kcat [1, 6]: 0.02 ± 0.0017 s⁻¹
Km [1, 7]: 1740 µM
kcat [1, 7]: 0.0198 s⁻¹

PGTCEICAYAACYGC (cysteine pairing not given here) [Guanylin, Guanylyl cyclase receptor GC-C agonist]
% prenylation (LC/MS) [2]: 1%

tecyclo[wAVSNLPPRPHITYIEC]S [PBm1]
% prenylation (LC/MS) [2]: 5%

H-Asp-Arg-Val-Tyr-Ile-His-Pro-Phe-OH [ANGIOTENSIN II]
Tyr-prenylation by LimF-H172L variant (in words) [2]: high efficiency

Trp-His-Trp-Leu-Gln-Leu-Lys-Pro-Gly-Gln-Pro-Met-Tyr-OH (WHWLQLKPGQPMY-OH) [α-mating factor, cell signaling peptide for yeast]
% prenylation (LC/MS) [2]: 4%

tecyclo[yWYYAWDQTYKAFPC]G [aMDS]
% prenylation (LC/MS) [2]: 1%

B1: LimF-H172L (protein)
chain: MKKRKSSKVFKSTIAPEEKLRYIGNHKQAFDIEPLYPLALFEEFVATTGDCIIECSGKIKQDQLYPARIDLQFSDKHHFHNIHTSIDFLKRAASRTDVNLNLDILATFLAGNFDYSKVQNILAGIDLRQNLGESKLKLFIRIGDYPAKMAVAKHLCNITPESEAMLRSDTLLIGFDFYLDGRSAIELYPELKKDEFNHPFIYNQLKTILSPEALKPLPLCNLFGIGLSPANEANVLYYHLENIEDFLSYFPINDTARRVHDFYLQQEGSRRMWVALSESEMKAGRINNVNLYYSKAFTSQNP
Km (mM), steady-state kinetics of Tyr-prenylation with GPP [3]: 1.7 mM
Km (mM), steady-state kinetics of His-prenylation with GPP [4]: 1.7 mM

B2: LimF-H172L: LimF in which His at position 172 is replaced by Leu, SEQ ID NO: 13 (protein)
chain: MKKRKSSKVFKSTIAPEEKLRYIGNHKQAFDIEPLYPLALFEEFVATTGDCIIECSGKIKQDQLYPARIDLQFSDKHHFHNIHTSIDFLKRAASRTDVNLNLDILATFLAGNFDYSKVQNILAGIDLRQNLGESKLKLFIRIGDYPAKMAVAKHLCNITPESEAMLRSDTLLIGFDFYLDGRSAIELYPELKKDEFNHPFIYNQLKTILSPEALKPLPLCNLFGIGLSPANEANVLYYHLENIEDFLSYFPINDTARRVHDFYLQQEGSRRMWVALSESEMKAGRINNVNLYYSKAFTSQNP
modifications: LimF-H172L
fold increase in kcat/Km over the wild type ([5]; steady-state kinetic assay, Tyr-prenylation of teR6-H5A (Table 11, Items 3 and 5)): 5 fold
Tyr-prenylation ability ([5]; teR6 or teR6-H5A substrate, 5 μM enzyme, 24 hours): more favorable modification efficiency for Tyr-containing substrates than wild-type LimF

Ends that are not written are not given here. Peptide text beside a SMILES is read from it.
